# Assay results: PubChem BioAssay (NCI)
#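 Dose response: 5 concentrations. Exposure: 48 h. Format: 96-well plates. Endpoint: linear interpolation; highest concentration if not reached. GI50: concentration for 50% inhibition of growth. The concentration for full growth arrest is given as TGI.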
# Columns and labels:
# Assay in all cases: NCI-60 cell line screen, 48 h
# [1] = tested on: MDA-N
# [2] = tested on: HCC-2998 colon
# [3] = tested on: U251 CNS
# [4] = tested on: HOP-92 NSCLC
# [5] = tested on: MCF7 breast
# [6] = tested on: MDA-MB-435
# [7] = tested on: UACC-257 melanoma
# [8] = tested on: 786-0 renal
# [9] = tested on: NCI-H322M lung
# [10] = tested on: SK-MEL-5 melanoma
# [11] = tested on: MDA-MB-231 breast
# [12] = tested on: IGROV1 ovarian
# [13] = tested on: HCT-15 colon
# [14] = tested on: CCRF-CEM leukemia
# [15] = tested on: NCI-H23 lung
# [16] = tested on: HCT-116 colon
# [17] = tested on: OVCAR-5 ovarian
# [18] = tested on: M14 melanoma
# [19] = tested on: NCI-H460 lung
# [20] = tested on: HS 578T breast
# [21] = tested on: HT29 colon
# [22] = tested on: SW-620 colon
# [23] = tested on: LOX IMVI melanoma
# [24] = tested on: SK-MEL-2 melanoma
# [25] = tested on: SF-295 CNS
# [26] = tested on: COLO 205 colon
# [27] = tested on: UO-31 renal
# [28] = tested on: SF-268 CNS
# [29] = tested on: A498 renal
# [30] = tested on: NCI-H522 lung
# [31] = tested on: MALME-3M melanoma
# [32] = tested on: UACC-62 melanoma
# [33] = tested on: EKVX NSCLC
# [34] = tested on: DU-145 prostate
# [35] = tested on: SR leukemia
# [36] = tested on: KM12 colon
# [37] = tested on: RPMI-8226 leukemia
# [38] = tested on: NCI/ADR-RES ovarian
# [39] = tested on: SNB-19 CNS
# [40] = tested on: HL-60(TB) leukemia
# [41] = tested on: ACHN renal
# [42] = tested on: K-562 leukemia
# [43] = tested on: SK-OV-3 ovarian
# [44] = tested on: SK-MEL-28 melanoma
# [45] = tested on: SN12C renal
# [46] = tested on: MOLT-4 leukemia
# [47] = tested on: OVCAR-8 ovarian
# [48] = tested on: RXF 393 renal
# [49] = tested on: HOP-62 NSCLC
# [50] = tested on: SNB-75 CNS
# [51] = tested on: TK-10 renal
# [52] = tested on: BT-549 breast
# [53] = tested on: OVCAR-4 ovarian
# [54] = tested on: T-47D breast
# [55] = tested on: A549 NSCLC
# [56] = tested on: CAKI-1 renal
# [57] = tested on: NCI-H226 lung
# [58] = tested on: PC-3 prostate
compound,measurement,setting,value
Nc1nonc1-c1no[n+]([O-])c1-c1nonc1N,GI50,[1],17.1 µM
same,TGI,[1],> 100 µM
same,GI50,[2],12.4 µM
same,TGI,[2],26 µM
same,GI50,[3],18.2 µM
same,TGI,[3],47.9 µM
same,GI50,[4],11.2 µM
same,TGI,[4],52.3 µM
same,GI50,[5],13.5 µM
same,TGI,[5],48.8 µM
same,GI50,[6],7.8 µM
same,TGI,[6],33.4 µM
same,GI50,[7],15.2 µM
same,TGI,[7],38.7 µM
same,GI50,[8],33.6 µM
same,TGI,[8],> 100 µM
same,GI50,[9],18.6 µM
same,TGI,[9],44.6 µM
same,GI50,[10],12 µM
same,TGI,[10],28.9 µM
same,GI50,[11],36 µM
same,TGI,[11],61.6 µM
same,GI50,[12],10.9 µM
same,TGI,[12],24.4 µM
same,GI50,[13],10.9 µM
same,TGI,[13],35.1 µM
same,GI50,[14],1.71 µM
same,TGI,[14],8.04 µM
same,GI50,[15],11.5 µM
same,TGI,[15],33.9 µM
same,GI50,[16],12.5 µM
same,TGI,[16],59.6 µM
same,GI50,[17],19.2 µM
same,TGI,[17],49.7 µM
same,GI50,[18],10.4 µM
same,TGI,[18],32.8 µM
same,GI50,[19],13.2 µM
same,TGI,[19],29.5 µM
same,GI50,[20],32.3 µM
same,TGI,[20],> 100 µM
same,GI50,[21],10.9 µM
same,TGI,[21],27.6 µM
same,GI50,[22],11.8 µM
same,TGI,[22],29.8 µM
same,GI50,[23],10.8 µM
same,TGI,[23],44.9 µM
same,GI50,[24],13.4 µM
same,TGI,[24],29.4 µM
same,GI50,[25],16.6 µM
same,TGI,[25],33 µM
same,GI50,[26],8.5 µM
same,TGI,[26],28.5 µM
same,GI50,[27],15.3 µM
same,TGI,[27],31.2 µM
same,GI50,[28],18.5 µM
same,TGI,[28],48.2 µM
same,GI50,[29],25.1 µM
same,TGI,[29],73.4 µM
same,GI50,[30],4.52 µM
same,TGI,[30],17.4 µM
same,GI50,[31],4.88 µM
same,TGI,[31],20.4 µM
same,GI50,[32],10.8 µM
same,TGI,[32],15.7 µM
same,GI50,[33],14.1 µM
same,TGI,[33],30.6 µM
same,GI50,[34],17.5 µM
same,TGI,[34],36.2 µM
same,GI50,[35],9.34 µM
same,TGI,[35],> 100 µM
same,GI50,[36],14.5 µM
same,TGI,[36],30.2 µM
same,GI50,[37],25.6 µM
same,TGI,[37],90 µM
same,GI50,[38],26.4 µM
same,TGI,[38],97.9 µM
same,GI50,[39],22.5 µM
same,TGI,[39],76.4 µM
same,GI50,[40],2.22 µM
same,TGI,[40],6.08 µM
same,GI50,[41],16.4 µM
same,TGI,[41],44.1 µM
same,GI50,[42],4.52 µM
same,TGI,[42],28.2 µM
same,GI50,[43],17.6 µM
same,TGI,[43],32.1 µM
same,GI50,[44],14.7 µM
same,TGI,[44],31.3 µM
same,GI50,[45],14.5 µM
same,TGI,[45],25.9 µM
same,GI50,[46],5.4 µM
same,TGI,[46],> 100 µM
same,GI50,[47],14.4 µM
same,TGI,[47],63.4 µM
same,GI50,[48],16.7 µM
same,TGI,[48],37.2 µM
same,GI50,[49],20.3 µM
same,TGI,[49],44.6 µM
same,GI50,[50],14.5 µM
same,TGI,[50],28.9 µM
same,GI50,[51],27 µM
same,TGI,[51],70.3 µM
same,GI50,[52],30.8 µM
same,TGI,[52],73.4 µM
same,GI50,[53],10.7 µM
same,TGI,[53],31.7 µM
same,GI50,[54],21.5 µM
same,TGI,[54],62.7 µM
same,GI50,[55],27.8 µM
same,TGI,[55],72.5 µM
same,GI50,[56],15 µM
same,TGI,[56],40.2 µM
same,GI50,[57],16.3 µM
same,TGI,[57],35.5 µM
same,GI50,[58],14 µM
same,TGI,[58],28.5 µM
